{"source": "patent US7541342B2", "about": "“Use of PKC-activating compounds as cardioprotectants and as apoptosis-inducing anti-tumor agents” (University of Tennessee Research Foundation, priority 2005, dated 2009)", "key": {"[1]": {"tested_on": "K562 cells", "assay": "Cytotoxicity analysis in K562 cells", "conditions": "3 μM AD 288"}, "[2]": {"tested_on": "32D.3 cells", "assay": "Cell viability determination by trypan blue staining", "conditions": "cells with trans-dominant negative PKC-δ"}}, "data": [{"smiles": "COc1cccc2c1C(=O)c1c(O)c3c(c(O)c1C2=O)C[C@@](O)(C(=O)CO)CC3O[C@H]1C[C@H](NCc2ccccc2)[C@H](O)[C@H](C)O1", "note": "(some centres unmarked) [AD 288, N-Benzyladriamycin]", "values": [{"measurement": "effect of PKC inhibitors (rottlerin, Go6976) on cytotoxicity", "setting": "[1]", "result": "not affected"}, {"measurement": "effect of reduced PKC activity on cytotoxicity", "setting": "[2]", "result": "no apparent effect"}]}]}
